# AlphaSeq binding of Ab-91 heavy chain variants to a spike HR2 peptide

The measurements come from Engelhart et al. 2022 (doi:10.1038/s41597-022-01779-4) through the FLAb antibody collection.

Target: peptide PDVDLGDISGINAS, taken from heptad repeat 2 (HR2) of SARS-CoV-2 spike.

The variants keep the light chain, the linker and the frameworks of Ab-91 (scFv order VL, a (GGGGS)3 linker, VH).
VL: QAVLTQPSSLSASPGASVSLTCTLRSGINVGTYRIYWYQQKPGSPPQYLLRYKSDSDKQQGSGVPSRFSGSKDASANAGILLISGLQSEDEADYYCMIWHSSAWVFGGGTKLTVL
VH: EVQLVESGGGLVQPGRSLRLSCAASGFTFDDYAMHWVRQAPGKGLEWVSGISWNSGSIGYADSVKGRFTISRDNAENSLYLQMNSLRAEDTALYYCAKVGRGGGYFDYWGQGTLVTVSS

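In library AAYL51, one, two or three CDR residues were substituted; doubles and triples were drawn at random. In AlphaSeq, yeast of one mating type display the scFv and yeast of the other type display the target. After mating in shaken culture at 30 °C for 16 h, diploids were selected and their barcode pairs sequenced. Read counts were normalised to the haploid input and turned into Kd by a linear fit to BCL2-family pairs of known affinity, for each replicate. Mating was done three times.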

Changes read parent residue, position, new residue, counted from the first residue of the VH shown. The Kd shown is the geometric mean over detected replicates; a lower Kd is a better binder. A pair that was not seen in any replicate is written "not detected"; this usually means weak binding, but a binder can also be missed. The list is sorted by this average, lowest first, undetected variants last. Background: pairings of library AAYL51 with three empty control strains gave a value in 21% of cases (median 34 µM, 5th percentile 1.8 µM). Values in that range, when seen in few replicates, are hard to tell from nonspecific mating. For reference, the parent read 72 nM as the reference entry and 7.5 nM as a member of this library.

| changes | Kd | seen in |
|---|---|---|
| S57A/I58H/A61S | 7.6 nM | 3/3 |
| A61S/G100V/Y108W | 14 nM | 3/3 |
| G26M/F27L/T28H | 14 nM | 3/3 |
| G56H/V64I/R101H | 32 nM | 3/3 |
| D30I/G102P/G103D | 68 nM | 3/3 |
| T28Y/N54S/G56N | 180 nM | 3/3 |
| S63G/K65T/Y105W | 870 nM | 1/3 |
| G26D/G50I/D107Y | 1.5 µM | 1/3 |
| T28A/S57Y/D107V | 5.3 µM | 2/3 |
| G26T/F27P/D31E | 5.8 µM | 3/3 |
| F27L/I58R/D107K | 5.9 µM | 1/3 |
| G26H/T28R/G50W | 6.6 µM | 1/3 |
| D30H/G59W/Y105W | 10 µM | 1/3 |
| Y32T/N54L/I58P | 18 µM | 2/3 |
| A61H/Y105V/Y108V | 19 µM | 3/3 |
| I58A/G104M | 19 µM | 2/3 |
| T28Y/F29Q/D31V | 19 µM | 3/3 |
| T28F/W53Q/Y108P | 20 µM | 1/3 |
| I58L/G103H/Y105C | 23 µM | 2/3 |
| F29I/W53C/Y108P | 28 µM | 2/3 |
| G26F/M34W/I58V | 28 µM | 2/3 |
| K65F/D107K | 29 µM | 2/3 |
| M34L/R101H/D107V | 36 µM | 3/3 |
| D31F/G59S/A61K | 44 µM | 2/3 |
| D31F/W53Y/G100R | 60 µM | 1/3 |
| G26H/I51L/V64K | 64 µM | 2/3 |
| T28A/D30I/G102S | 68 µM | 2/3 |
| F27Y/Y32T/D107Q | 87 µM | 2/3 |
| G50N/S55M/V64S | 91 µM | 1/3 |
| G26F/F29S/Y60G | 99 µM | 2/3 |
| H35M/I51D/A61D | 120 µM | 1/3 |
| M34N/G56N/F106V | 140 µM | 1/3 |
| F27V/G56R/K65I | 150 µM | 2/3 |
| G59V/R101T/D107P | 160 µM | 3/3 |
| G26A/T28A/S52T | 170 µM | 1/3 |
| F29C/M34K/S55F | 210 µM | 2/3 |
| I51A/V64K | 230 µM | 3/3 |
| G26H/R101A/G103F | 240 µM | 3/3 |
| F27E/G56N/D107C | 270 µM | 2/3 |
| I51C/V99N | 330 µM | 1/3 |
| M34H/Y60C/Y108P | 350 µM | 1/3 |
| A33E/S55M/G56F | 1.9 mM | 1/3 |
| M34Y/V99A/F106A | not detected | 0/3 |
| Y32D/G104W | not detected | 0/3 |
| G50D/S52G/Y108V | not detected | 0/3 |
| Y32R/S63C/V99D | not detected | 0/3 |
| T28W/G59C/Y105M | not detected | 0/3 |
| T28S/V99P | not detected | 0/3 |
| Y32E/I51V/D62I | not detected | 0/3 |
| F27I/D31C/R101E | not detected | 0/3 |
| A61V/V99A/D107K | not detected | 0/3 |
| S52F/G103T | not detected | 0/3 |
| D62S/G103Q/F106R | not detected | 0/3 |
| S52C/G59S/D62Y | not detected | 0/3 |
| Y60W/K65C/V99P | not detected | 0/3 |